Results: ChEMBL document CHEMBL1133521, “Multiple-conformation and protonation-state representation in 4D-QSAR: the neurokinin-1 receptor system” (J Med Chem, 2000)

By UniProt entry, the sequences of proteins in these tests, tags left out.
UniProt P25103, whole entry: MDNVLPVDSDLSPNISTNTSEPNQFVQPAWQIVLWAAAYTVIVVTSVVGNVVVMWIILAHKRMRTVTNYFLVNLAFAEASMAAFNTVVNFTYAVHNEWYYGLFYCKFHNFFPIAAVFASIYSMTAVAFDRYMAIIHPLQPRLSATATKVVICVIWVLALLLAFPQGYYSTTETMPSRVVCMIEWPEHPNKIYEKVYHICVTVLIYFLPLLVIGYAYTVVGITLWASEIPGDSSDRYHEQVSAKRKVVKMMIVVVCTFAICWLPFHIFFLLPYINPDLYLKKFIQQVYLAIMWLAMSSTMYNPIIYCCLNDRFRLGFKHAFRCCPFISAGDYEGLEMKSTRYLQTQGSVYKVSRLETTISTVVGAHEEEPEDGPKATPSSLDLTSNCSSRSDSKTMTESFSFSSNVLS

Molecular target: Substance-P receptor (Homo sapiens, UniProt P25103)
Assay: Inhibitory activity against Tachykinin receptor 1

IC50: 12 nM
Compound: COc1ccccc1C(C1CCCCN1C(=O)c1cc(C(F)(F)F)cc(C(F)(F)F)c1)N1CCC(N2CCCCC2)CC1 (stereo unspecified)
